{
  "source": "patent US20090035322A1",
  "about": "(Regeneron, published 2009)",
  "binders": {"B1": {"name": "2F2 (antibody, V domains shown)", "VH": "EVQLVESGGGLVQPGRSLRLSCAASGFTFNDYAMHWVRQAPGKGLEWVSTISWNSGSIGYADSVKGRFTISRDNAKKSLYLQMNSLRAEDTALYYCAKDIQYGNYYYGMDVWGQGTTVTVSS", "VL": "EIVLTQSPATLSLSPGERATLSCRASQSVSSYLAWYQQKPGQAPRLLIYDASNRATGIPARFSGSGSGTDFTLTISSLEPEDFAVYYCQQRSNWPITFGQGTRLEIK"}},
  "key": {"[1]": {"biological_target": "T1, human CD20 (human, UniProt P11836 1-297)", "T1 sequence": "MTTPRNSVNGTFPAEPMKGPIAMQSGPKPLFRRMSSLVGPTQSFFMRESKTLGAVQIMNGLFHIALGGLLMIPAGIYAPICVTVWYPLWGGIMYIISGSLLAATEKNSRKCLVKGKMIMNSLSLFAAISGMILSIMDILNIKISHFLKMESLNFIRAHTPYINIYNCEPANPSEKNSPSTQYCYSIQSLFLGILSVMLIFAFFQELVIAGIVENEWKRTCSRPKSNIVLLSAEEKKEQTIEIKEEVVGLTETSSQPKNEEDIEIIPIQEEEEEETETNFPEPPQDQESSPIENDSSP", "experiment": "cell-based or functional assay"}, "[2]": {"biological_target": "T1, human CD20", "experiment": "cell-based or functional assay", "remark": "listed apart in the source"}, "[3]": {"biological_target": "T1, human CD20", "experiment": "cell-based or functional assay", "remark": "listed apart in the source"}, "[4]": {"biological_target": "T1, human CD20", "experiment": "cell-based or functional assay", "remark": "listed apart in the source"}, "[5]": {"biological_target": "T1, human CD20", "experiment": "flow cytometry, hCD20-transfected MG87 cells", "protocol": "Briefly, parental MG87 and human CD20-transfected MG87 cells were incubated for 30 min at 4° C. with each of the 15 human antibodies and the two control antibodies, followed by incubation with PE-conjugated anti-human IgG antibody. Binding was assessed by flow cytometry. Fluorescence intensities were compared with binding to the parental cell line and control isotype-matched sample."}, "[6]": {"biological_target": "T2, mutant human CD20 #5 (P172S) (human, UniProt P11836 1-297)", "T2 construct": "Stably expressed on MG87 cells", "T2 sequence": "T1 sequence with P172S", "experiment": "FACS, mutant-hCD20 MG87 cells; 100%=best antibody", "protocol": "Briefly, approximately 1×10⁶ cells from each stably transfected cell line expressing a mutant human CD20 were collected and incubated with each anti-human antibody, at 10 μg/ml, on ice for 1 hr, followed by incubation with APC-conjugated goat anti-human IgG (Jackson Immunolabs), at 10 μg/ml, on ice for 45 min. For each antibody, binding to each mutant human CD20 was assessed by flow cytometry."}},
  "note": "Positions count from the first letter of the chain named. Read-outs that look alike come from different tables or passages of the source.",
  "data": [
    {"binder": "B1", "values": [
      {"measurement": "CDC, Daudi EC50", "setting": "[1]", "value": 0.28, "unit": "nM"},
      {"measurement": "CDC, RL EC50", "setting": "[1]", "value": 0.77, "unit": "nM"},
      {"measurement": "% Cytotoxicity (CDC, Daudi), 0 hour", "setting": "[2]", "value": 99.6, "unit": "%"},
      {"measurement": "% Cytotoxicity (CDC, Daudi), 1 hour", "setting": "[2]", "value": 99.1, "unit": "%"},
      {"measurement": "% Cytotoxicity (CDC, Daudi), 6 hour", "setting": "[2]", "value": 98.5, "unit": "%"},
      {"measurement": "% Cytotoxicity (CDC, Daudi), 0 hour", "setting": "[3]", "value": 98.3, "unit": "%"},
      {"measurement": "% Cytotoxicity (CDC, Daudi), 1 hour", "setting": "[3]", "value": 98.6, "unit": "%"},
      {"measurement": "% Cytotoxicity (CDC, Daudi), 6 hour", "setting": "[3]", "value": 97.7, "unit": "%"},
      {"measurement": "% Cytotoxicity (CDC, Daudi), 0 hour", "setting": "[4]", "value": 99.1, "unit": "%"},
      {"measurement": "% Cytotoxicity (CDC, Daudi), 1 hour", "setting": "[4]", "value": 99.2, "unit": "%"},
      {"measurement": "% Cytotoxicity (CDC, Daudi), 6 hour", "setting": "[4]", "value": 98.7, "unit": "%"},
      {"measurement": "Total Mean Fluorescent Intensity", "setting": "[5]", "value": 3320},
      {"measurement": "Percent of Binding to Mutant Human CD20", "setting": "[6]", "value": 84, "unit": "%"}
    ]}
  ]
}
